By UniProt entry, the sequences of proteins in these tests, tags left out. Residues count along the entry.
UniProt P05067, 672-713: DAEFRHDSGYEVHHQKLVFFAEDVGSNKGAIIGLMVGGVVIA

According to US8207189B2, “Compound having affinity for amyloid” (Nihon Medi-Physics Co., Ltd., priority 2007, dated 2012):

Target: T1, amyloid (aggregated Aβ1-42) (Homo sapiens, UniProt P05067)
T1 construct: Aβ1-42 (manufactured by Wako) was dissolved in phosphate buffer (pH 7.4); purchased Wako
Assay: in vitro binding test: inhibition of [125I]3′-I-BTA-0 binding to amyloid
Conditions: [125I]3′-I-BTA-0 400 pmol/L, amyloid 1 μmol/L, 22°C, 3 hours
Description: Affinity of the present compounds with amyloid was examined by the following in vitro binding tests.
The measured radioactivity level was defined as the background radioactivity level, and used in the calculation of the inhibition ratio (hereinafter referred to as BG).
(9) Using the radioactivity levels measured above in (7) and (8), the inhibition ratio was determined by the following formula (1).
A graph in which values converted by probit transformation from the obtained inhibition ratios were plotted relative to logarithms of concentrations of compounds for evaluation was prepared to obtain an approximate straight line by the least square method.

Cc1ccc2c(c1)sc(-c1ccc(N(C)C)cc1)[n+]2C [Thioflavin T]
IC50: > 1 µM
